The values that follow are results of earlier work, collected in patent publication US10166246B2, “TGR5 agonist complexes for treating diabetes and cancer” (City of Hope, priority 2014, dated 2019).

For this data set the following is noted: in vivo; cited from earlier work.

Regarding `CN(C)C(=N)N=C(N)N` [Metformin, N,N-dimethylbiguanidine], the metabolism entry is reported as “not metabolized” and the “time to steady state” value is on record as “one or two”.
